Values quoted from earlier work in patent publication US8124634B2, “CB1 receptor modulators” (7TM Pharma A/S, priority 2006, dated 2012).

The chains behind the UniProt entries cited, without tags or fusion partners.
UniProt P47746, whole entry: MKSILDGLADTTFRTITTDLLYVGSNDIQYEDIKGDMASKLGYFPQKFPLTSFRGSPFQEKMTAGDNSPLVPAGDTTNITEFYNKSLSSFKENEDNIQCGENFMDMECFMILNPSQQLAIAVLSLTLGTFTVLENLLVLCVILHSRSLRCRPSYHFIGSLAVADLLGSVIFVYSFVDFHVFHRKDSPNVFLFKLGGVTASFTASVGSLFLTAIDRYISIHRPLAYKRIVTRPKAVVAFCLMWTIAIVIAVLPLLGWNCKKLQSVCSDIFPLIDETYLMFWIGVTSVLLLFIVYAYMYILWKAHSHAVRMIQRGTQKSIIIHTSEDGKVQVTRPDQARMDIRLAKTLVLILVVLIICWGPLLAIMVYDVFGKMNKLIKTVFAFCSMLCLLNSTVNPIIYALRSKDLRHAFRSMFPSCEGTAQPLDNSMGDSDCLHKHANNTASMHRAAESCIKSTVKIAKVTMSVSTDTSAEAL

Biological target: CB1 (cannabinoid receptor 1) (Mus musculus, UniProt P47746)
Details: cited from earlier work

SMILES: Cc1c(C(=O)NN2CCCCC2)nn(-c2ccc(Cl)cc2Cl)c1-c1ccc(Cl)cc1 [Rimonabant]
- effect in the gastrointestinal transit model: clear dose dependent effect
